Earlier results as cited in article PMC11988861, “Step Enzymatic Hydrolysis and In Silico Screening-Assisted Preparation of Bioactive Peptides from Abalone” (Foods, 2025).

The chains behind the UniProt entries cited, without tags or fusion partners. Residues count along the entry.
UniProt P12821, 30-1306 limits assumed: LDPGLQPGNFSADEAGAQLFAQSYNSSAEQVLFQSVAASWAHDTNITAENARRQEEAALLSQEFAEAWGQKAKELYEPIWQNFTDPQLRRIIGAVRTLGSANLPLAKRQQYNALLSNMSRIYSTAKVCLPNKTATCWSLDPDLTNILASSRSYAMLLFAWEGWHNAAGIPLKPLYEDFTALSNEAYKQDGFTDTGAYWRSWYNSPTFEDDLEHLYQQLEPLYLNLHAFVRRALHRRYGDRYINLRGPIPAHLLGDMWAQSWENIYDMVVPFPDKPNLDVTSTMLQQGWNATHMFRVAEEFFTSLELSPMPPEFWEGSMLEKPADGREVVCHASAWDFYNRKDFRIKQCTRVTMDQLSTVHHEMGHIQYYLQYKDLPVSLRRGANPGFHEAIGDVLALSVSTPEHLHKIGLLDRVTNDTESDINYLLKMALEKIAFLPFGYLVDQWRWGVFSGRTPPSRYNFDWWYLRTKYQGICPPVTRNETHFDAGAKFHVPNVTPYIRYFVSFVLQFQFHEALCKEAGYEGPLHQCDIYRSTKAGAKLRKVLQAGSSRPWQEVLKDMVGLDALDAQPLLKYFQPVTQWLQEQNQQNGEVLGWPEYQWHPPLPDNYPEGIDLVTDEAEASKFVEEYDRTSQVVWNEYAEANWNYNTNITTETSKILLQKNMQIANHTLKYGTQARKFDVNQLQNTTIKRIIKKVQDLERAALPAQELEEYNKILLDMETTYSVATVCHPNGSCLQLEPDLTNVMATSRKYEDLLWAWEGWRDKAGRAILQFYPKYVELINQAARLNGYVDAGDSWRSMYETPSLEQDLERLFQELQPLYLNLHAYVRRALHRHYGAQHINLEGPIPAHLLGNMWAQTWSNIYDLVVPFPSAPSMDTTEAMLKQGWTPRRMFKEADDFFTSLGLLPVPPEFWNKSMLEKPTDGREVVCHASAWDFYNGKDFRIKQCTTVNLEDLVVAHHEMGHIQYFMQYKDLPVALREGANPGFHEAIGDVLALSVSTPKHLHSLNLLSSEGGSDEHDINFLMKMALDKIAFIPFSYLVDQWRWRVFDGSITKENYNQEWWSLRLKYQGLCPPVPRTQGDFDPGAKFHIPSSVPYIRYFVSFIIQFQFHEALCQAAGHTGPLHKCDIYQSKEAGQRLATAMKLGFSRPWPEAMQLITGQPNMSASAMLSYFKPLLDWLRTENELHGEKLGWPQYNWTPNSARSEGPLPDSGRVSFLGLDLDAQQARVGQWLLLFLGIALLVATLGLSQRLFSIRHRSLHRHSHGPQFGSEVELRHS

Target: ACE (Homo sapiens, UniProt P12821)
Settings: literature ACEi peptides from skipjack tuna muscle
Text: Table 5 Summary of properties of 14 peptides. | column: ACEi IC50/ (mg·mL^−1)

## N[C@@H](CO)C(=O)N1CCC[C@H]1C(=O)O
  ACEi IC50: 60 µg/mL
